The values that follow come from patent EP3885436A1, “POLYPEPTIDES WITH PEROXIDASE ACTIVITY” (Technische Universität Wien, priority 2020, dated 2021).

Sequences of proteins named here, by UniProt entry; tags and fusion partners are left off. Residues count along the entry.
UniProt P00433, 31-338 N43D/N87S/P176Q/N205S/N285D/N298D/N305K: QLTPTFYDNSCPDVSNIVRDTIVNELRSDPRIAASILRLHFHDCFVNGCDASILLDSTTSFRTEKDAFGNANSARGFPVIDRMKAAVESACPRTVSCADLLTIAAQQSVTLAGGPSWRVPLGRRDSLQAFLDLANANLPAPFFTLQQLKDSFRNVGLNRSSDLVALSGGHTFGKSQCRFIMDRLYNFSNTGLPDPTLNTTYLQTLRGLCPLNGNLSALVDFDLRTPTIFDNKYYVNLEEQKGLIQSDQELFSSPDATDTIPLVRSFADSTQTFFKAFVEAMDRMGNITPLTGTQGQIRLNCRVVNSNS
UniProt P00433, 31-338 N43D/N87S/N205S/N285D/N298D: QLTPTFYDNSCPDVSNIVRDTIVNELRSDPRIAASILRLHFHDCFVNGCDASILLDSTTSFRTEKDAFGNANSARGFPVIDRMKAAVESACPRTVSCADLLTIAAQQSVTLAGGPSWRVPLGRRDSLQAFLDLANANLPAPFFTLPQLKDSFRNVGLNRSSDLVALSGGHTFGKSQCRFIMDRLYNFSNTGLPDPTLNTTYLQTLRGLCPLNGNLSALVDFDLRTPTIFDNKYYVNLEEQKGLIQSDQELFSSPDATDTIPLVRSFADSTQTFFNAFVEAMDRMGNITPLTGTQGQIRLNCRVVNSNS

Like-named read-outs stand apart in the source and are kept apart here.

What all share (assay type): biochemical
Assay [1] addresses T1, plant-derived HRP (pHRP), Plant HRP Type VI-A, horseradish peroxidase (Armoracia rusticana, UniProt P00433).
T1 construct: The plant-derived enzyme undergoes post-translational modifications, resulting inter alia in a free N-terminus without an appended methionine; purchased Sigma-Aldrich P6782; host or cells: extracted from the plant
T1 sequence (P00433 31-338 limits assumed): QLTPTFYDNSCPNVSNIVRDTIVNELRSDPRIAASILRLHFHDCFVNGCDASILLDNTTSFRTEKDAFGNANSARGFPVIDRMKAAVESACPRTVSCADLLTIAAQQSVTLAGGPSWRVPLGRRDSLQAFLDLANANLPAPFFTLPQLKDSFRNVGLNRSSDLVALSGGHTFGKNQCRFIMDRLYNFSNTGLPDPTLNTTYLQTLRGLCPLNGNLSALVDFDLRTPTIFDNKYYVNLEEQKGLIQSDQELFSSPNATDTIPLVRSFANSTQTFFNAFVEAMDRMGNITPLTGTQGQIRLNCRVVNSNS
The assay is described as follows: Enzyme kinetic parameters, 96-well plate assay. The following applies: substrate ABTS (0.1 - 7 mM), 1 mM H2O2, 50 mM phosphate-citrate buffer pH 5, 30 °C; Table 5. As for the experimental part:
(§1) Plant HRP Type VI-A (Cat. No.: P6782) was obtained from Sigma-Aldrich (St. Louis, MO, USA). All HRP variants produced in E. coli consisted of the sequence as set forth in SEQ ID NO: 2 with the indicated mutations unless specified otherwise.
(§2) For measurements with 3,3',5,5'-tetramethylbenzidine (TMB) as substrate, the reaction mixture in each well of the 96-well plate contained a saturating hydrogen peroxide concentration of 1 mM and varying TMB concentrations (20 - 550 µM) in 50 mM phosphate-citrate buffer pH 5 in a final volume of 200 µL. Protein sample (5 µL) was mixed with 175 µl TMB-buffer mixture and the reaction was started with 20 µl hydrogen peroxide solution (10 mM). The increase in absorption was followed at 652 nm for 60s at 30 °C in a Tecan Infinite M200 PRO instrument. The kinetic parameters were calculated using Sigma Plot software (Systat Software INC., San Jose, CA, USA) and an extinction coefficient of ε652 = 39 mM^-1 cm^-1 (see Josephy, et al. "The horseradish peroxidase-catalyzed oxidation of 3, 5, 3', 5'-tetramethylbenzidine. Free radical and charge-transfer complex intermediates." Journal of Biological Chemistry 257.7 (1982): 3669-3675).
Protein sample (5 µL) was mixed with 175 µl ABTS-buffer mixture and the reaction was started with 20 µl hydrogen peroxide solution (10 mM). […]

Assay [2] addresses T2, horseradish peroxidase variant HRP N13D/N57S/P146Q/N175S/N255D/N268D/N275K (mHRP, SEQ ID NO: 4), produced in E. coli (Armoracia rusticana, UniProt P00433, N205S/N285D/N298D/N305K/N43D/N87S/P176Q).
T2 construct: made in house
The following applies: substrate ABTS (0.1 - 7 mM), 1 mM H2O2, 50 mM phosphate-citrate buffer pH 5, 30 °C. As for the experimental part:
as §1, §2
(§3) The increase in absorption was followed at 420 nm for 120 s at 30 °C in a Tecan Infinite M200 PRO instrument. The kinetic parameters were calculated using Sigma Plot software (Systat Software INC., San Jose, CA, USA) and an extinction coefficient of ε420 = 36 mM^-1 cm^-1 (see Childs and Bardsley. "The steady-state kinetics of peroxidase with 2, 2'-azino-di-(3-ethyl-benzthiazoline-6-sulphonic acid) as chromogen." Biochemical Journal 145.1 (1975): 93-103).
as §3

Assay [3] has as its target T3, horseradish peroxidase variant HRP N13D/N57S/N175S/N255D/N268D, produced in E. coli (Armoracia rusticana, UniProt P00433, N205S/N285D/N298D/N43D/N87S).
T3 construct: made in house
The settings on record: substrate ABTS (0.1 - 7 mM), 1 mM H2O2, 50 mM phosphate-citrate buffer pH 5, 30 °C; Table 4. As to the method:
as §1, §2, §3, §3

The target in assay [4] is T4, horseradish peroxidase, wild-type HRP (rHRP, variant C1A, SEQ ID NO: 2), produced in E. coli (Armoracia rusticana, UniProt P00433).
T4 construct: made in house
T4 sequence (P00433 with tags, fused parts or gaps): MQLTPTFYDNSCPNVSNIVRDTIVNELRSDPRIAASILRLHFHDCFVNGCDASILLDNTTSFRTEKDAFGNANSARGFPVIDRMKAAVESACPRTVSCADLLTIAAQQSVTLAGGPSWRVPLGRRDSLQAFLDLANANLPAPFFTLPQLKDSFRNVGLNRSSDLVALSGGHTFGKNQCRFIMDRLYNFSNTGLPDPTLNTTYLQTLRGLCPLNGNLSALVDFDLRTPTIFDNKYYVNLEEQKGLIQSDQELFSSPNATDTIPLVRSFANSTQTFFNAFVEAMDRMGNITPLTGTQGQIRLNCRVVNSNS
The assay is described as follows: Enzyme kinetic parameters, 96-well plate assay. The settings on record: substrate ABTS (0.1 - 7 mM), 1 mM H2O2, 50 mM phosphate-citrate buffer pH 5, 30 °C; Table 5. As to the method:
as §1, §2
The increase in absorption was followed at 420 nm for 120 s at 30 °C in a Tecan Infinite M200 PRO instrument. […]

With `CCn1c(=NN=c2sc3cc(S(=O)(=O)O)ccc3n2CC)sc2cc(S(=O)(=O)O)ccc21` [ABTS, 2,2'-azino-bis(3-ethylbenzthiazoline-6-sulfonic acid)], in assay [1], the Michaelis constant (Km) (as a rule, the substrate concentration at which the rate is half of its maximum) is 700 ± 140 µM. The kcat (commonly the number of substrate molecules converted per active site and unit of time at saturation) in assay [1] was 734 ± 41 s⁻¹; in assay [2] (Table 4 (Example 3)), 716 ± 58 s⁻¹; in assay [2] (Table 5 (Example 4)), 702 ± 56 s⁻¹; in assay [3] it was 786 ± 74 s⁻¹; in assay [4], 823 ± 25 s⁻¹.
